Experimental findings from ChEMBL document CHEMBL4834477, “Synthesis and biological evaluation of novel purinyl quinazolinone derivatives as PI3Kδ-specific inhibitors for the treatment of hematologic malignancies” (Bioorg Med Chem, 2021) are described below.

Each structure is given as a SMILES string.

For this assay, the species on record is Homo sapiens. Put plainly: Selectivity ratio of IC50 for recombinant human full length His-tagged p110gamma expressed in baculovirus expression system to IC50 for recombinant human full length His-tagged p110delta/p85alpha expressed in baculovirus expression system.

`O=c1c2c(F)cccc2nc([C@@H](Nc2ncnc3nc[nH]c23)C2CC2)n1-c1ccccc1`: the Ratio IC50 amounted to 49.
